Results on one substance are retold here after US10682361B2, “Sustained release bimatoprost, bimatoprost analogs, prostamides and prostaglandins for fat reduction” (ALLERGAN, INC., priority 2013, dated 2020).

The data set can be described thus: 2-D MR image after injection into gastrocnemius muscle (depot localization). The class given is in vivo. The note with it: 40 minutes post-injection, MGL and MGM muscle groups. The method, then: The right leg was injected with HA/Albumin-Gadolinium, the left leg with Albumin-Gadolinium alone;
The right leg was injected with HA/Albumin-Gadolinium, the left leg with Albumin-Gadolinium alone.

Turning to “Albumin-Gadolinium: Albumin-Gadolinium MR contrast marker injected alone into the left leg”, the “spread or localization in muscle on MR image” value is “diffuse spread”.
